The entries are a selection whose mix differs from that of the whole data set. Activity calls are given as the source filed them. No stated cut-off is given here; in the data, active means activity change below about -50%; inconclusive means mostly about -30% to -49%; inactive means weaker than that.

Sequences of proteins named here, by UniProt entry; tags and fusion partners are left off.
UniProt Q9BTU6, whole entry: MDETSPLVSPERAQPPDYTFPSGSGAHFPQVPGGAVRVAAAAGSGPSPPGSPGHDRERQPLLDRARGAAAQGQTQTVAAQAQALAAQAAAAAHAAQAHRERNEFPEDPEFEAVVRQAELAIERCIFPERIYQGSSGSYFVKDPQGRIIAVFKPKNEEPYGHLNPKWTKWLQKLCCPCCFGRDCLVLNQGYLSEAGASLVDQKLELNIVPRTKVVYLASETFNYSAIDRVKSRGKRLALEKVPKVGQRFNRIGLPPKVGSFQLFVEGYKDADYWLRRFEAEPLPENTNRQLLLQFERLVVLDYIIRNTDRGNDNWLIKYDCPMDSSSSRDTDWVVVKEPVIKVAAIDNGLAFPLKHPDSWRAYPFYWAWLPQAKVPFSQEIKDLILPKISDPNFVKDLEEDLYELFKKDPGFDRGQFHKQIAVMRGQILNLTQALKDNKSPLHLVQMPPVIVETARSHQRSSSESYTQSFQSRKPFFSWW

This assay has as its target Phosphatidylinositol 4-kinase type 2-alpha (Homo sapiens) (UniProt Q9BTU6). Description: qHTS for small molecular inhibitors of PI4K2A.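 Further: -100% = wells without enzyme as full effect.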 The settings on record: purified PI4K2A, ADP-Glo luminescence, 1 h; at 76.9 µM; stronger effect = lower value. The source says: The phosphatidylinositol 4-phosphate (PI4P) is emerging as a key regulator of lipid transfer in ER-membrane contact sites. The four different phosphatidylinositol 4-kinase (PI4K) enzymes generate PI4P in different membrane compartments supporting distinct cellular processes many of which are crucial for the maintenance of cellular integrity but also hijacked by intracellular pathogens. The goal of this screening project is to search for small molecular inhibitors of PI4K2A based on a high throughput screening strategy.The ADP-Glo assay was used as a starting point to develop a miniaturized version for HTS applications. To implement the HTS screen, the PI4K ADP-Glotrade mark Kinase assay (Promega, V9102) was miniaturized for the 1536-well format used at NCGC.
For the robotic screening, the ADP-Glo assay using the ADP-Glotrade mark Kinase Assay kit from Promega was miniaturized and optimized on 1536-well white solid bottom plates (Greiner Bio-one). The substrate, 1.2 mM PI, prepared in the assay buffer (40mM Tris pH7.5, 20mM MgCl2, 1mM EGTA, 0.4% Triton X-100, 0.5mM DTT, 0.5mg/ml BSA) and PI4K2A enzyme, diluted also in the assay buffer to 4ug/mL, were dispensed onto the plates in equal volumes (1microl/well), pinned with 23 nL/well tested compounds or control followed by dispensation of 1microl/well 300microM ATP. The plates were incubated for one hour. Then, 2 µL/well of ADP-Glo reagent was added and incubated for 40 minutes. Next, 4microL/well of Kinase Detection Buffer was added to the plates and incubated for additional 40 minutes. All incubation steps were performed at ambient temperature. The resulting luminescence signal was measured on Viewlux plate reader (PerkinElmer). Adenosine, a partial non-specific inhibitor, was used as a positive control at 100microM final concentration to assess the assay's quality and plate-to-plate reproducibility. We also used "no enzyme" control to gauge the assay's maximal potential inhibition (IC100).
(In qHTS, concentration-response curves come from the screen itself.)
With `O=c1[nH]c2ccccc2n1C1CCN(C(c2cccs2)c2nnnn2C2CCCC2)CC1` (centres undefined), the activity change, negative = inhibition is inactive: 2.46%.

In the case of `O=C(O)c1cccc(Nc2c([N+](=O)[O-])cc([N+](=O)[O-])cc2[N+](=O)[O-])c1`, the activity change, negative = inhibition was inactive: -0.65%.

For the compound `CCc1cc(C(=O)NCC2(N3CCCCC3)CCCCC2)sc1C`, the activity change, negative = inhibition is inactive: -3.06%.

With `O=C(OC1CN2CCC1CC2)C1c2ccccc2C=Cc2ccccc21` (centres undefined), the activity change, negative = inhibition is inactive: 0.912%.

Take `CCCCn1nnnc1C(c1cccc(OC)c1OC)N1CCC(n2c(=O)[nH]c3ccccc32)CC1` (centres undefined): the activity change, negative = inhibition is inactive: -5.06%.

Consider `CCOC(=O)N1CCC(Nc2ccc(C)cc2)CC1`, for which the activity change, negative = inhibition was inactive: 1.66%.

As to `COc1cccc(C(c2nnnn2C(C)(C)C)N2CCC(n3c(=O)[nH]c4ccccc43)CC2)c1OC` (centres undefined), the activity change, negative = inhibition was inactive: 0.085%.

Turning to `N/C(=N\O)c1c(N)no[n+]1[O-]`, the activity change, negative = inhibition is inactive: -4.54%.

On to `NC(=O)C1(Nc2ccccc2)CCN(Cc2ccccc2)CC1`, for which the activity change, negative = inhibition was inactive: -1.86%.

As for `CCC(=O)N(c1ccccc1)C1CCNCC1`, the activity change, negative = inhibition is inactive: -3.89%.

Regarding `O=c1[nH]c2ccccc2n1C1CCN(C(c2cccs2)c2nnnn2C2CCCCC2)CC1` (centres undefined), the activity change, negative = inhibition was inactive: -1.84%.

As for `O=c1[nH]c2ccccc2n1C1CCN(C(c2ccnc3ccccc23)c2nnnn2C2CCCC2)CC1` (centres undefined), the activity change, negative = inhibition is inactive: -1.55%.

For `COc1ccc(C(=O)NCC2(N3CCOCC3)CCCCC2)cc1OC`, the activity change, negative = inhibition is inactive: 1.88%.

Take `COc1cc(C(=O)NCC2(N3CCOCC3)CCCCC2)cc(OC)c1C`: the activity change, negative = inhibition is inactive: -0.529%.

Turning to `CCCCn1nnnc1C(c1ccccc1)N1CCC(n2c(=O)[nH]c3ccccc32)CC1` (centres undefined), the activity change, negative = inhibition was inactive: -6.5%.

Regarding `O=C(NCC1(N2CCOCC2)CCCCC1)c1cc(Br)ccc1Cl`, the activity change, negative = inhibition was inactive: -4.12%.

As to `CC(C)(C)n1nnnc1C(c1cccc2ccccc12)N1CCC(n2c(=O)[nH]c3ccccc32)CC1` (centres undefined), the activity change, negative = inhibition was inactive: -2.98%.

Turning to `CN(C)C1(CNC(=O)c2cccc(C#N)c2)CCCCC1`, the activity change, negative = inhibition was inactive: 9.09%.

`CCCN1CCC(Nc2cc(OC)cc(OC)c2)CC1`: the activity change, negative = inhibition is inactive: -6.79%.

As to `O=c1[nH]c2ccccc2n1C1CCN(C(c2ccccc2)c2nnnn2C2CCCC2)CC1` (centres undefined), the activity change, negative = inhibition is inactive: 0.385%.

Take `O=C(NCC1(N2CCOCC2)CCCCC1)c1ccccc1`: the activity change, negative = inhibition is inactive: 1.24%.

As to `Cc1cc(N(CCCl)CCCl)ccc1C=O`, the activity change, negative = inhibition is inactive: -1.25%.

For the compound `c1ccc(CN2CCC(Nc3ccccc3)CC2)cc1`, the activity change, negative = inhibition was inactive: 0.427%.

With `CCOC(=O)C(CC)C1=NC(C)(C)Cc2ccccc21.O=[N+]([O-])c1cc([N+](=O)[O-])c(O)c([N+](=O)[O-])c1` (centres undefined), the activity change, negative = inhibition was inactive: 3.81%.

On to `O=C(NCC1(N2CCOCC2)CCCCC1)c1ccccc1[N+](=O)[O-]`, for which the activity change, negative = inhibition is inactive: -12.9%.

For `N#Cc1ccc(C(=O)NCC2(N3CCCCC3)CCCCC2)cc1`, the activity change, negative = inhibition is inactive: -0.855%.

On to `CC(C)(C)OC(=O)N1CCC(N(C(=O)c2ccccc2)c2ccc(Cl)cc2)CC1`, for which the activity change, negative = inhibition is inactive: -4.54%.

With `O=C(NCC1(N2CCOCC2)CCCCC1)c1ccc([N+](=O)[O-])cc1`, the activity change, negative = inhibition is inactive: -1.83%.

For `Cc1ccccc1C(=O)NCC1(N(C)C)CCCCC1`, the activity change, negative = inhibition was inactive: -4.1%.

In the case of `CN(C)c1ccc(C(=O)NCC2(N3CCCCC3)CCCCC2)cc1`, the activity change, negative = inhibition was inactive: 5.14%.

As to `Cn1c(=O)[nH]cc(N(CCCl)CCCl)c1=O`, the activity change, negative = inhibition was active: -55.5%.

For `O=C(NCC1(N2CCCCC2)CCCCC1)c1ccco1`, the activity change, negative = inhibition is inactive: 4.37%.

For the compound `CC(C)(C)c1ccc(C(=O)NCC2(N3CCOCC3)CCCCC2)cc1`, the activity change, negative = inhibition was inactive: -3.17%.

Take `COc1ccc(C(c2nnnn2C2CCCCC2)N2CCC(n3c(=O)[nH]c4ccccc43)CC2)cc1` (centres undefined): the activity change, negative = inhibition is inactive: -3.82%.

Take `CCN1CCC(Nc2cccc(F)c2)CC1`: the activity change, negative = inhibition was inactive: 1.24%.

As to `CC(C)(C)n1nnnc1C(c1ccnc2ccccc12)N1CCC(n2c(=O)[nH]c3ccccc32)CC1` (centres undefined), the activity change, negative = inhibition is inactive: 1.57%.

As for `Cc1ccccc1NC1(C#N)CCN(Cc2ccccc2)CC1`, the activity change, negative = inhibition was inactive: 0.586%.

Regarding `Fc1ccccc1NC1CCN(Cc2ccccc2)CC1`, the activity change, negative = inhibition was inactive: 0.849%.

With `Cc1ccc(Nc2c([N+](=O)[O-])cc([N+](=O)[O-])cc2[N+](=O)[O-])cc1`, the activity change, negative = inhibition was inactive: -7.17%.

Regarding `Cc1ccc(C(=O)NCC2(N3CCCCC3)CCCCC2)o1`, the activity change, negative = inhibition is inactive: -1.38%.

Take `Cc1ccc(NC2(C#N)CCN(Cc3ccccc3)CC2)cc1`: the activity change, negative = inhibition was inactive: 1.09%.

`CCC(c1nnnn1C1CCCCC1)N1CCC(n2c(=O)[nH]c3ccccc32)CC1` (centres undefined): the activity change, negative = inhibition is inactive: 3.17%.

In the case of `CN(C)C1(CNC(=O)c2ccc(C(C)(C)C)cc2)CCCCC1`, the activity change, negative = inhibition was inactive: 0.135%.

As for `COc1cccc(C(c2nnnn2C2CCCCC2)N2CCC(n3c(=O)[nH]c4ccccc43)CC2)c1OC` (centres undefined), the activity change, negative = inhibition was inactive: 14.6%.

For the compound `CC(=O)N(c1ccccc1)C1CCNCC1`, the activity change, negative = inhibition is inactive: -2.28%.

In the case of `COc1cc(OC)cc(C(=O)NCC2(N3CCCCC3)CCCCC2)c1`, the activity change, negative = inhibition is inactive: 3.78%.

With `O=c1[nH]c2ccccc2n1C1CCN(C(c2ccnc3ccccc23)c2nnnn2C2CCCCC2)CC1` (centres undefined), the activity change, negative = inhibition was inactive: 1.49%.

Take `CN1CCC(Nc2ccc(Cl)cc2)CC1`: the activity change, negative = inhibition is inactive: -0.397%.

Consider `COc1cccc(C(=O)N(c2cc(C)cc(C)c2)C2CCN(C(=O)OC(C)(C)C)CC2)c1`, for which the activity change, negative = inhibition is inactive: -0.425%.

Turning to `COc1cc(C(=O)NCC2(N3CCOCC3)CCCCC2)cc(OC)c1OC`, the activity change, negative = inhibition is inactive: -1.53%.

With `COc1cc(OC)cc(C(=O)NCC2(N3CCOCC3)CCCCC2)c1`, the activity change, negative = inhibition is inactive: -1.15%.

As for `COc1cccc(C(c2nnnn2C2CCCC2)N2CCC(n3c(=O)[nH]c4ccccc43)CC2)c1OC` (centres undefined), the activity change, negative = inhibition was inactive: -3.08%.

In the case of `CCC(CO)(C(=O)OC1CN2CCC1CC2)c1ccccc1` (centres undefined), the activity change, negative = inhibition is inactive: -10.3%.

With `NN(c1ccccc1)C1CCN(CCc2ccccc2)CC1`, the activity change, negative = inhibition was inactive: -0.88%.

For `O=C(O)C1(Nc2ccccc2)CCN(Cc2ccccc2)CC1`, the activity change, negative = inhibition was inactive: -2.13%.

For `CC(C)(C)OC(=O)N1CCC(Nc2ccccc2)CC1`, the activity change, negative = inhibition is inactive: -2.13%.

Turning to `O=c1[nH]c2ccccc2n1C1CCN(C(c2cc3ccccc3o2)c2nnnn2C2CCCC2)CC1` (centres undefined), the activity change, negative = inhibition is inactive: 0.776%.

`CCCOc1ccc(C(=O)NCC2(N(C)C)CCCCC2)cc1`: the activity change, negative = inhibition is inactive: 0.75%.

On to `CN1CCC(Nc2ccc(F)c(Cl)c2)CC1`, for which the activity change, negative = inhibition was inactive: -2.7%.
